{"source": "paper PMC4640224", "about": "“Phosphorylation of a splice variant of collapsin response mediator protein 2 in the nucleus of tumour cells links cyclin dependent kinase-5 to oncogenesis” (BMC Cancer, 2015)", "tested_on": "CDK5 substrate phosphorylation in primary cortical neurons", "test": "Immunohistochemistry of CDK5 substrate phosphorylation in paraffin-embedded primary neurons", "type": "cell-based, rat", "conditions": "10 μM inhibitor, 3 h, formaldehyde fixed, Fig. 3b", "method": "Ethical approval was obtained by review through the Tissue Access Committee of Tayside Tissue Bank (approval # TR338) and the studies follow the Guidelines of the Declaration of Helsinki for the use of human tissues for research. Sections of formalin-fixed, paraffin embedded tissue were cut at a thickness of 4 μm, collected onto Polysine-coated microscope slides (VWR International) and dried overnight at 37 °C. Sections were dewaxed in Histoclear, rinsed in alcohol and endogenous peroxidase was quenched with 0.5 % hydrogen peroxide (100 volumes) in methanol at room temperature for 35 min. After washing in water, antigen retrieval was performed by boiling sections in 10 mM citrate buffer, pH 6.0 for 15 min in a microwave. After cooling, sections were rinsed in PBS and blocked with 5 % normal serum in PBS containing 5 % (v/v) avidin (Vector Laboratories, Peterborough, UK) for 30 min at room temperature. Sections were washed in PBS and incubated with primary antibody in 5 % normal serum in PBS containing 5 % (v/v) biotin at 4 °C overnight. After washing in PBS, sections were then incubated with biotinylated secondary antibody (1:250) (Vector Laboratories) for 30 min at room temperature, followed by streptavidin complexed with biotinylated peroxidase (Vectastain ABC kit; Vector Laboratories) at room temperature for 30 min. The peroxidase complexes were visualized using 0.25 mg/ml diaminobenzidine tetrahydrochloride (DAB) (Sigma) in PBS containing 5 mM imidazole (pH 7.0) and 0.075 % hydrogen peroxide for 10 min at room temperature. Cell nuclei were counterstained with haematoxylin (Sigma), dehydrated through graded alcohols, cleared in HistoClear and mounted in DPX. Images were taken using a Spot Insight QE digital camera or slides were digitally scanned (x40) using an Aperio ScanScope XT.\n[…]. […] Scale bar = 100 μm."}
{"compound": "CC[C@H](CO)Nc1nc(NCc2ccccc2)c2ncn(C(C)C)c2n1", "note": "[roscovitine]", "values": [{"measurement": "Intensity of staining and number of cells stained for phospho-Ser522 of CRMP2 (immunohistochemistry)", "value": "reduced"}, {"measurement": "Tau phosphorylation at Ser235 (immunohistochemistry)", "value": "not significantly affected"}, {"measurement": "Tau phosphorylation at Thr205 (immunohistochemistry)", "value": "not significantly affected"}]}
